# Screens (PubChem)
# In the library only some 0.34% were active in any assay of this set; here they are far more common.
# miR-21 reporter: raises the signal of a miR-21 reporter. Potency, µM (highest dose often 38.3 µM), without a hit: top-dose reporter change, positive = more light. 340,000 tested, under 10 active. HeLa miR-21 FLuc reporter, luciferase, 48 h; active = well fitted rising curve with a large enough effect; inconclusive = small, poorly fitted or top-dose-only effect; inactive = no such curve, though single readings can be large or run the other way;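 further: % of control where 0% means no effect; miR-21 action dims this reporter so a rising signal means less miR-21 action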
#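 Using DMEM plus 10% FBS, HeLa miR-21-FLuc cells are incubated with test compounds (final up to about 40uM) for 48 hours; firefly luciferase signal is then imaged following reagent-mediated lysis.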
# Vif-APOBEC3G blk: blocks the Vif interaction with human APOBEC3G | Potency, µM (doses to about 46.1 µM), for the others: at the top dose activity, negative = active, actives largely listed as inhibitors | AID 602310 | HeLa A3G-eYFP + Vif (tagged APOBEC3G with the HIV-1 protein that degrades it), YFP fluorescence, overnight | 410,000 compounds, 0.076% hits; also: potency is read from the fitted curve at half-maximal effect; % is scaled to controls: 0 for no effect and ±100 for the full control effect; nearly all actives have a fitted effect of over 60% in size
#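 HeLa cells stably expressing Vif and C-terminally eYFP-tagged A3G, seeded overnight at 37 deg C, then exposed to compound by pintool overnight at 37 deg C. Rise in yellow fluorescence (Ex 488/Em 500-530, Acumen) marks blocked Vif-driven A3G degradation.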
# Epigenetic derep: derepresses silenced GFP reporter in murine cells; AID 1865; Potency, µM (titrated, usually from 53.9 µM), inactives show at the top dose GFP activation, most hits filed as activators; 280,000 compounds, 0.2% hits; murine LDR cells, GFP reporter derepression, 30 h; also: potency is read from the fitted curve at half-maximal effect; % of control where 0% means no effect; nearly all actives have a fitted effect of over 60% in size
#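 Murine LDR cells bearing a silenced CMV-driven GFP reporter were exposed to compound for 30 h at 37 C. After PBS washes, GFP-positive cells (20-120 um objects) counted by laser-scanning microplate cytometry.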
# Vif-A3F inh: Vif-A3F binding inhibition; HeLa A3F-eYFP + Vif (tagged APOBEC3F with the HIV-1 protein that degrades it), YFP fluorescence increase; Potency, µM (highest dose often 46.1 µM), inactives show top-dose activity, negative = active; 390,000 compounds, 0.2% hits; AID 602313; also: potency is read from the fitted curve at half-maximal effect; % of control where 0% means no effect; nearly all actives have a fitted effect of over 65% in size
#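 HeLa cells stably expressing A3F-eYFP plus Vif, plated and incubated overnight at 37 deg C, then exposed to compounds overnight at 37 deg C. Blocked degradation read as raised yellow fluorescence (Ex 488/Em 500-530).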
# Starred values were filed as active, the others as inactive; i = inactive; ? = inconclusive; · = not tested or not shown. Unless noted, calls follow the shape of the dose curve; as a rule, active = well fitted curve in the direction sought with a large enough effect; inconclusive = small, poorly fitted or top-dose-only effect, or another doubt; inactive = no such curve, though single readings can be large; an effect the other way counts as inactive or inconclusive.
# Letter code: A = miR-21 reporter; B = Vif-APOBEC3G blk; C = Epigenetic derep; D = Vif-A3F inh
molecule: CCN(CC)c1ccc2cc(-c3nc(-c4cc5ccccc5oc4=O)cs3)c(=O)oc2c1
  A: ·	B: 7.1µM*	C: ·	D: i
molecule: CCN(CC)c1ccc2cc(-c3nnc(Nc4ccc(C)cc4)s3)c(=O)oc2c1
  A: -8%	B: 4%	C: 0.1µM*	D: -625%
molecule: C=C(C(=O)c1ccccc1)C(C)C(=C)C(=O)c1ccccc1
  A: ?	B: 5µM*	C: 0%	D: ?
molecule: C=C(C(=O)c1ccccc1)C(c1ccccc1)C(C)C(=O)c1ccccc1 (stereo not given)
  A: ?	B: -28%	C: 0%	D: -13%
molecule: NC(=O)CC(NC(=O)Cc1ccc(Br)cc1)c1ccc(NCc2ccc(F)cc2)c([N+](=O)[O-])c1 (stereo not given)
  A: -6%	B: ?	C: ?	D: 11µM*
molecule: COc1cc(/C=C2\SC(N)=NC2=O)cc(Br)c1O
  A: 0%	B: 11µM*	C: ·	D: ?
molecule: N#Cc1cc2ccccc2nc1SCc1ccccn1
  A: -55%	B: ?	C: 0%	D: 13µM*
molecule: Cc1cc2cc3c(cc2nc1SCc1ccccn1)OCCO3
  A: -17%	B: 1%	C: 0%	D: -9%
molecule: Clc1ccccc1C1CC(c2ccccc2)=Nc2ccccc2N1 (stereo not given)
  A: -49%	B: -22%	C: 0%	D: 20µM*
molecule: Nc1c(C(=O)c2ccccc2)sc2nsc(SCCN3CCOCC3)c12
  A: -36%	B: ?	C: ?	D: 3.5µM*
molecule: COc1ccc(-c2ccc3c(c2)S(=O)(=O)c2cccc(C(=O)NCc4ccccc4Cl)c2C3=O)cc1OC
  A: ·	B: -3%	C: ·	D: 6%
molecule: CC(C)c1cccc(-c2ccc3c(c2)S(=O)(=O)c2cccc(C(=O)NCc4ccccc4Cl)c2C3=O)c1
  A: ·	B: 0%	C: ·	D: 11µM*
molecule: CC(C)c1cccc(-c2ccc3c(c2)S(=O)(=O)c2cccc(C(=O)NCc4ccccc4)c2C3=O)c1
  A: ·	B: 2%	C: ·	D: 10µM*
molecule: CCOC(=O)Nc1ccc2c3c(cccc13)-c1ccccc1-2
  A: ·	B: ?	C: ·	D: 3.5µM*
molecule: CCOC(=O)Nc1cccc2ccccc12
  A: -4%	B: -6%	C: 7%	D: 5%

# Ordered by value in miR-21 reporter (largest number first): some entries from above.
SMILES	miR-21 reporter	Epigenetic derep	Vif-A3F inh
NC(=O)CC(NC(=O)Cc1ccc(Br)cc1)c1ccc(NCc2ccc(F)cc2)c([N+](=O)[O-])c1 (stereo not given)	-6%	?	11µM*
Nc1c(C(=O)c2ccccc2)sc2nsc(SCCN3CCOCC3)c12	-36%	?	3.5µM*
N#Cc1cc2ccccc2nc1SCc1ccccn1	-55%	0%	13µM*

# The results go on.
# Letter code: A = miR-21 reporter; B = Vif-APOBEC3G blk; C = Epigenetic derep; D = Vif-A3F inh
molecule: COc1ccc(CNC(=O)C2CCN(c3nnc(-n4cccc4CNc4ccc(C)cc4)s3)CC2)c(OC)c1
  A: 12%	B: ·	C: 1%	D: ·
molecule: Cc1c(Cc2ccccc2)sc(/N=C/c2c(O)ccc3ccccc23)c1C(N)=O
  A: 10%	B: -28%	C: 13%	D: 8.9µM*
molecule: Cc1c(Cc2ccccc2)sc(/N=C/c2ccc3ccccc3c2)c1C(N)=O
  A: -2%	B: ?	C: 9%	D: -20%
molecule: Cc1ccc(-c2nnn(CC(=O)N(CC(=O)NCCC(C)C)c3ccc(F)cc3)n2)cc1
  A: 4%	B: 2%	C: -1%	D: 5%
molecule: CS(=O)(=O)Nc1ccc(C2=NN(S(C)(=O)=O)C(c3ccc4nccnc4c3)C2)cc1 (stereo not given)
  A: -15%	B: ?	C: 0%	D: 22µM*
molecule: CCS(=O)(=O)N1N=C(c2cccc(NS(C)(=O)=O)c2)CC1c1ccc(C)cc1 (stereo not given)
  A: -5%	B: ?	C: 22µM*	D: 11µM*
molecule: CCS(=O)(=O)Nc1cccc(C2=NN(S(C)(=O)=O)C(c3ccccc3)C2)c1 (stereo not given)
  A: 0%	B: ?	C: ?	D: ?
molecule: CC[n+]1ccc(/C=C/c2c[nH]c3ccccc23)cc1
  A: 27%	B: 5µM*	C: ·	D: 7.1µM*
molecule: CCCCCCC[n+]1ccc(/C=C/c2c[nH]c3ccccc23)cc1
  A: ·	B: 8%	C: ·	D: ·
molecule: COc1ccc2c(/C=C/c3cc[n+](C)cc3)c[nH]c2c1
  A: ?	B: ?	C: ·	D: 13µM*
molecule: COc1ccc(C(=O)N/N=C/c2cc(Br)ccc2O)cc1OC
  A: 27%	B: -30%	C: -1%	D: 11µM*
molecule: O=S(=O)(Nc1nc2ccccc2nc1Nc1ccc2c(c1)OCCO2)c1cccs1
  A: -25%	B: -16%	C: 1%	D: 11µM*
molecule: COc1ccc(S(=O)(=O)Nc2nc3ccccc3nc2Nc2ccc3c(c2)OCO3)cc1
  A: -6%	B: ·	C: 0%	D: ·
molecule: COc1cc(N2CCCC2)c(OC)cc1/C=c1/sc2nc3ccccc3n2c1=O
  A: -9%	B: ·	C: 2.8µM*	D: ·
molecule: CCOC(=O)C1=C(C)N=C2c3ccccc3C(=O)C2C1c1ccc(Cl)cc1 (stereo not given)
  A: 9%	B: -13%	C: -2%	D: -8%
molecule: CCOC(=O)C1=C(Cc2ccc(Cl)cc2)C(=O)c2ccccc2C1=O
  A: ?	B: ?	C: 8%	D: 28µM*
molecule: Cc1cc(=O)c2c(O)c3c(O)cc(=O)c4c3c3c(cc(O)c1c23)C(C)(C)C=4O
  A: ·	B: ·	C: 16µM*	D: ·
molecule: CCC(C)Sc1ccc(-c2nc3cc(C)ccn3c2NC2CCCCC2)cc1 (stereo not given)
  A: ·	B: ?	C: ·	D: 11µM*
molecule: COC(=O)c1cc(=O)n(Cc2cccs2)c(=Nc2ccccc2)s1
  A: 16%	B: -22%	C: 18µM*	D: 0%
